{"source": "patent US12129233B2", "about": "“Water-soluble salts of cannabinoids, preparation and uses thereof” (priority 2021, dated 2024)", "conditions": "in water; synthesized salts (and cannabinol parent)"}
{"substance": "L-Lysine Salt with CBD (1:1) [drawing 17/drawing 19 1:1]", "values": [{"measurement": "Solubility", "result": 2000, "unit": "µg/mL"}]}
{"substance": "L-Lysine Salt with CBD (2:1) [drawing 17/drawing 19 1:2]", "values": [{"measurement": "Solubility", "result": 4000, "unit": "µg/mL"}]}
